Source: paper PMC12801292

Amino acid sequences for entries named in this document (tags omitted).
UniProt Q9NYY3, whole entry: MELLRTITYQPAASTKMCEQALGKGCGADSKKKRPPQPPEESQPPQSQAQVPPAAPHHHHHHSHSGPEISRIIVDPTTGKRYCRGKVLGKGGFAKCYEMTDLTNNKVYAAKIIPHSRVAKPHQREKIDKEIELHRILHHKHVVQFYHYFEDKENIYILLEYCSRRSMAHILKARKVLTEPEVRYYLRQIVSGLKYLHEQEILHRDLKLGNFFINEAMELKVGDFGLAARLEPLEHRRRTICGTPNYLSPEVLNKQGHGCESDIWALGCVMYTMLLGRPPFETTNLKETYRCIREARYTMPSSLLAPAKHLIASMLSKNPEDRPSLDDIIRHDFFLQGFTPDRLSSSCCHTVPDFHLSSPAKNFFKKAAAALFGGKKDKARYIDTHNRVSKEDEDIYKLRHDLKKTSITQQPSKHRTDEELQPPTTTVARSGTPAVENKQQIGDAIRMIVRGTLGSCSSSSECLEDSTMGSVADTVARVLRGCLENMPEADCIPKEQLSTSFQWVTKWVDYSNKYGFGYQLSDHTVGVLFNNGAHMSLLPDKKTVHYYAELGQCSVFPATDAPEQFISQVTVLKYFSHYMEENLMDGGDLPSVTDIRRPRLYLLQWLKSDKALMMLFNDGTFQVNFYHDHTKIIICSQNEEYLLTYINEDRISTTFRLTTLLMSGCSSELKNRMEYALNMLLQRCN

Target: PLK2 (Homo sapiens, UniProt Q9NYY3)
Assay: LanthaScreen Eu kinase binding assay (FRET)
Conditions: duplicate

| IC50 [nM] | Structure (SMILES) |
| --- | --- |
| 774 | N#CC1=C(N)Oc2[nH]nc(-c3ccncc3)c2C1c1ccc(O)c(O)c1 (centres unmarked) |
| 584 | COc1ccc(-c2n[nH]c3c2C(c2ccccc2O)C(C#N)=C(N)O3)cc1 (centres unmarked) |
